Results from PMC9218946, “Identification of a Subtype-Selective Allosteric Inhibitor of GluN1/GluN3 NMDA Receptors” (Frontiers in Pharmacology, 2022).

The chains behind the UniProt entries cited, without tags or fusion partners. Residues count along the entry.
UniProt Q9R1M7, 24-1135: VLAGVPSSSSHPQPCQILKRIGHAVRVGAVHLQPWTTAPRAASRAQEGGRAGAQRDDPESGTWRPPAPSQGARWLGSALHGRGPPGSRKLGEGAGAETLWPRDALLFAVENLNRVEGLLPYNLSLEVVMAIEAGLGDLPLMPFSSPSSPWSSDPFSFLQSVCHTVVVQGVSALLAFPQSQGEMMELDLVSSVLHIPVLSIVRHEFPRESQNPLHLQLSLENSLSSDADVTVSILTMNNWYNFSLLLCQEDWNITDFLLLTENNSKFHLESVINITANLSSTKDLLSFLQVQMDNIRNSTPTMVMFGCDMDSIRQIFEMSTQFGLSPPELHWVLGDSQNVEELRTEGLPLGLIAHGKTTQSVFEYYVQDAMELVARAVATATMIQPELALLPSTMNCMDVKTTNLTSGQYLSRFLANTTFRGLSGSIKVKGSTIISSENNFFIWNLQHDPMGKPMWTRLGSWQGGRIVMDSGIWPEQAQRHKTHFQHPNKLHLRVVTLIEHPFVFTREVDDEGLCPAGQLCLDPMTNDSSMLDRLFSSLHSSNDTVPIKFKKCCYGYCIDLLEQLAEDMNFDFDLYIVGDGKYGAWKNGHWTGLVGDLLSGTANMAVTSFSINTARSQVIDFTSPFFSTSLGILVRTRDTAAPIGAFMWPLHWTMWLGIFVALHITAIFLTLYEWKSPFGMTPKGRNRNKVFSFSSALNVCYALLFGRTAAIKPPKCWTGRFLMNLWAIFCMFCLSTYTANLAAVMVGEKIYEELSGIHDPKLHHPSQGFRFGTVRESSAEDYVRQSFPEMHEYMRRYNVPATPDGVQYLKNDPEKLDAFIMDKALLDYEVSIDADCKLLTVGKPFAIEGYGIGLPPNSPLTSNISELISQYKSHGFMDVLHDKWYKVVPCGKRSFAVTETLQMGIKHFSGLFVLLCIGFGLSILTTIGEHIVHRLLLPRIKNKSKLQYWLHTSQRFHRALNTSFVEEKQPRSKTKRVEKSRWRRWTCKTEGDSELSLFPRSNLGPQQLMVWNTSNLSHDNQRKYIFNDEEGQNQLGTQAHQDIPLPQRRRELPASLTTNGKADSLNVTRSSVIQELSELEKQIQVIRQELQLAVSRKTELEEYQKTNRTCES

Biological target: GluN1/GluN3A receptors (UniProt Q05586+Q9R1M7)
Assay: High-throughput Fluo-4 calcium assay (FDSS/μCell) in HEK-293 cells stably expressing GluN1/GluN3A
Type: cell-based, human GluN1-1a, rat GluN3A
Parameters: expressed in transfected cells
Conditions: pre-incubation before 100 μM glycine, fluorescence signal
Protocol: The HEK-293 cells stably expressing GluN1/GluN3A receptors were seeded at a density of 10,000 cells/well in the 384-well plates, and expression was induced with 1 μg/ml doxycycline for 24–28 h. Then the culture medium was removed, Fluo-4 (Invitrogen) was loaded and the cells were incubated in the 37°C incubator away from light for 1 h ([Gee et al., 2000]). The plates were gently washed twice with Ca^2+-free buffer and then incubated with one of the 2560 compounds (from the Chinese National Compound Library) or DMSO (1% and 0.33%) for 20 min. A fixed concentration of 30 μM and dual concentrations of 10 μM and 30 μM were applied in the primary and secondary screening, respectively. Two replicates were set up for each condition. […] A FDSS/μCell platform (Hamamatsu) was used to measure the fluorescence signals. […] The inhibitory effects of tested compounds were compared by the ratios of fluorescence (F) with (F drug) and without (F control) the compounds. The F control value in these assays represented the value of basal Fluo-4 fluorescence plus glycine-stimulated fluorescence, and the F drug indicated the total Fluo-4 fluorescence after treatment of the drugs. […]

For C[C@@H](NCc1cc(Br)cc2[nH]c(=O)c(=O)[nH]c12)P(=O)(O)O [CGP-78608], the saturated concentration was “approximately 500 nM”.
